# According to PubChem BioAssay AID1347076 (National Center for Advancing Translational Sciences (NCATS), 2019):
# The list shows a part of the results, in another mix than the full data. Records with an inconclusive call do not appear. Active and inactive are the calls of the source. Calls come from the whole dose curve; as a rule, active = well fitted cell-killing curve with a large enough effect; inconclusive = small, poorly fitted or top-dose-only effect, or effect the other way; inactive = flat fitted curve, though single readings scatter.
# Assay: qHTS assay for MDR1-selective chemotherapeutics: Primary screen using the drug-selected MDR subline cells KB-V1; note: nearly all actives have a fitted effect of over 60% in size
# Settings: KB-V1 MDR cells viability, CellTiter-Glo, 72 h; at 46.1 µM (top of the series)
# From the text: A prime difficulty in effectively treating cancer is the development of cellular resistance to multiple structurally unrelated anticancer drugs, a phenomenon known as multidrug resistance (MDR). […] Numerous strategies to overcome P-gp-mediated MDR have been explored, including the design of drugs that evade recognition and efflux, and development of inhibitors to block efflux and restore drug accumulation. […] An alternative approach is to exploit resistance by identifying drugs that target MDR cells over the non-resistant parental cells from which they were selected. […] The development of MDR1-selective agents represents a new strategy for resolving multidrug resistance, as it remains a long-standing clinical challenge for cancer chemotherapy.
# Our goal is to identify compounds that selectively kill P-gp-expressing MDR cells. We will identify MDR1-selective compounds by comparing toxicity of compounds in the screening library against parental, drug-naive (KB-3-1) adenocarcinoma cells as well as their drug-selected MDR sub-line (KB-V1). The differential toxicity of compounds against these two cell lines will be used to identify MDR1-selective compounds, whose cytotoxicity is potentiated, rather than diminished, by P-gp expression. This assay will be utilized to conduct a quantitative high-throughput screen (qHTS) in collaboration with the NIH Chemical Genomics Center to identify selective agents, and probe hits arising from the screen will be validated using secondary assays and characterized through a well-established follow-up research program. This screen was run against the entire NCGC library collection of about 400,000 compounds.
# NIH Molecular Libraries Probe Production Network [MLPCN]
# NIH Chemical Genomics Center [NCGC]
# PI: Michael Gottesman, National Cancer Institute, NIH
# Briefly, 5 microL of media containing either KB-V1 cells (columns 1-2, 4-48) are dispensed into Greiner white, treated solid-bottom 1536-well assay plates (media-only control is added to column 3). Compounds are then transferred via Kalypsys pin tool equipped with 1536-pin array (10 nL slotted pins, V&P Scientific, San Diego, CA). Following addition of compound, the plates are incubated at 37 degrees C for 72 hours. CellTiter-Glo (2.5 µL/well) is then added, and the plates are read in a ViewLux reader (Perkin-Elmer, clear luminescence filter, 1 second exposure, 1x binning) following a 10 minute incubation. All cells are dispensed in DMEM phenol-red free media containing 10% FBS.
# Library plates were screened starting from the lowest and proceeding to the highest concentration. Vehicle-only plates, with DMSO being pin-transferred to columns 5-48, will be inserted uniformly at the beginning and the end of each library in order to monitor and record any shifts in the background, which can be affected by reagent dispensers or loss in enzyme activity over time. Screening data will be corrected, normalized, and concentration-effect relationships will be derived by using publicly-available NCGC, NCATS curve fitting algorithms (http://ncgc.nih.gov/pub/openhts).
# % is set by controls: 0 for no effect and ±100 for the full control effect.
row,Compound,"activity change, negative = cytotoxicity"
1,CN(C)C1(CNC(=O)c2ccc(C(C)(C)C)cc2)CCCCC1,inactive: 1.94%
2,CCC(c1nnnn1C1CCCCC1)N1CCC(n2c(=O)[nH]c3ccccc32)CC1 (centres undefined),inactive: 0%
3,Cc1ccc(C(=O)NCC2(N3CCCCC3)CCCCC2)o1,inactive: -6.81%
4,Fc1ccccc1NC1CCN(Cc2ccccc2)CC1,inactive: -13.1%
5,Cc1ccc(Nc2c([N+](=O)[O-])cc([N+](=O)[O-])cc2[N+](=O)[O-])cc1,inactive: -0.717%
6,Cc1ccccc1NC1(C#N)CCN(Cc2ccccc2)CC1,inactive: 26.4%
7,CC(C)(C)n1nnnc1C(c1ccnc2ccccc12)N1CCC(n2c(=O)[nH]c3ccccc32)CC1 (centres undefined),inactive: 10.8%
8,O=C(NCC1(N2CCCCC2)CCCCC1)c1ccco1,inactive: 0%
9,CC(C)(C)c1ccc(C(=O)NCC2(N3CCOCC3)CCCCC2)cc1,inactive: -0.955%
10,CN(C)c1ccc(C(=O)NCC2(N3CCCCC3)CCCCC2)cc1,inactive: -18.8%
11,Cn1c(=O)[nH]cc(N(CCCl)CCCl)c1=O,inactive: -17.1%
12,Cc1ccccc1C(=O)NCC1(N(C)C)CCCCC1,inactive: -0.769%
13,CN1CCC(Nc2ccc(F)c(Cl)c2)CC1,inactive: 8.99%
14,CCCOc1ccc(C(=O)NCC2(N(C)C)CCCCC2)cc1,inactive: -5.81%
15,CC(C)(C)OC(=O)N1CCC(Nc2ccccc2)CC1,inactive: -26.5%
16,O=C(O)C1(Nc2ccccc2)CCN(Cc2ccccc2)CC1,inactive: 20.9%
17,ClCCN(CCCl)c1ccc(C=C2C=CC=C2)cc1,inactive: -3.82%
18,CCC(CO)(C(=O)OC1CN2CCC1CC2)c1ccccc1 (centres undefined),inactive: 19.6%
19,COc1cccc(C(c2nnnn2C2CCCC2)N2CCC(n3c(=O)[nH]c4ccccc43)CC2)c1OC (centres undefined),inactive: 0%
20,COc1cc(C(=O)NCC2(N3CCOCC3)CCCCC2)cc(OC)c1OC,inactive: -22.9%

row,Compound,"activity change, negative = cytotoxicity"
1,COc1cccc(C(=O)N(c2cc(C)cc(C)c2)C2CCN(C(=O)OC(C)(C)C)CC2)c1,inactive: -6.16%
2,CN1CCC(Nc2ccc(Cl)cc2)CC1,inactive: 19.7%
3,O=C(NCC1(N2CCOCC2)CCCCC1)c1cc(Br)ccc1Cl,inactive: 5.54%
4,CCCCn1nnnc1C(c1ccccc1)N1CCC(n2c(=O)[nH]c3ccccc32)CC1 (centres undefined),inactive: 8.15%
5,COc1ccc(C(=O)NCC2(N3CCOCC3)CCCCC2)cc1OC,inactive: -19.2%
6,O=c1[nH]c2ccccc2n1C1CCN(C(c2ccnc3ccccc23)c2nnnn2C2CCCC2)CC1 (centres undefined),inactive: -0.613%
7,O=Cc1ccc(N(CCCl)CCCl)cc1,inactive: 6.24%
8,N/C(=N\O)c1c(N)no[n+]1[O-],inactive: 21.1%
9,CCOC(=O)N1CCC(Nc2ccc(C)cc2)CC1,inactive: -19.6%
10,COc1cccc(C(c2nnnn2C(C)(C)C)N2CCC(n3c(=O)[nH]c4ccccc43)CC2)c1OC (centres undefined),inactive: -20.6%
11,O=C(O)c1cccc(Nc2c([N+](=O)[O-])cc([N+](=O)[O-])cc2[N+](=O)[O-])c1,inactive: 12.9%
12,CC(C)(C)OC(=O)N1CCC(N(C(=O)c2ccccc2)c2ccc(Cl)cc2)CC1,inactive: -23%
13,N#Cc1ccc(C(=O)NCC2(N3CCCCC3)CCCCC2)cc1,inactive: -21.9%
14,O=C(NCC1(N2CCOCC2)CCCCC1)c1ccccc1[N+](=O)[O-],inactive: -22.1%
15,CCOC(=O)C(CC)C1=NC(C)(C)Cc2ccccc21.O=[N+]([O-])c1cc([N+](=O)[O-])c(O)c([N+](=O)[O-])c1 (centres undefined),inactive: -0.812%
16,c1ccc(CN2CCC(Nc3ccccc3)CC2)cc1,inactive: 5.75%
17,O=C(NCC1(N2CCOCC2)CCCCC1)c1ccccc1,inactive: -24.6%
18,CCCN1CCC(Nc2cc(OC)cc(OC)c2)CC1,inactive: -20.1%
19,CC(C)(C)n1nnnc1C(c1cccc2ccccc12)N1CCC(n2c(=O)[nH]c3ccccc32)CC1 (centres undefined),inactive: -16.8%
20,CC(C)(C)n1nnnc1C(c1ccccc1OC(F)(F)F)N1CCC(n2c(=O)[nH]c3ccccc32)CC1 (centres undefined),inactive: -27%

row,Compound,"activity change, negative = cytotoxicity"
1,O=C(NCC1(N2CCCCC2)CCCCC1)c1ccc(OC(F)F)cc1,inactive: -16.2%
2,CCOc1ccc(C(=O)NCC2(N3CCOCC3)CCCCC2)cc1,inactive: -18.5%
3,O=C(NCC1(N2CCCCC2)CCCCC1)c1cccc([N+](=O)[O-])c1,inactive: 3.64%
4,CCN1CCC(Nc2ccc(Cl)cc2)CC1,inactive: 24.6%
5,O=c1[nH]c2ccccc2n1C1CCN(C(c2ccccc2OC(F)(F)F)c2nnnn2C2CCCC2)CC1 (centres undefined),inactive: 0%
6,O=C(NCC1(N2CCCCC2)CCCCC1)c1cccc(C(F)(F)F)c1,inactive: -6.93%
7,O=[N+]([O-])c1cc([N+](=O)[O-])c(NCC2CCS(=O)(=O)C2)c([N+](=O)[O-])c1 (centres undefined),inactive: -4.74%
8,CN1CCN(CCOC(=O)C(O)(c2ccccc2)c2ccccc2)CC1,inactive: -11.6%
9,COc1ccc(NC2CCN(C(=O)OC(C)(C)C)CC2)cc1,inactive: 2.45%
10,CCCCn1nnnc1C(c1cccc2ccccc12)N1CCC(n2c(=O)[nH]c3ccccc32)CC1 (centres undefined),inactive: -6.29%
11,COc1cc(C(=O)NCC2(N3CCCCC3)CCCCC2)ccc1OC(F)F,inactive: -21.9%
12,O=C(NCC1(N2CCOCC2)CCCCC1)c1cc(=O)[nH]c2ccccc12,inactive: -4.35%
13,COc1ccc(CN(CCCl)CCCl)cc1Cl,inactive: 0%
14,O=[N+]([O-])c1cc([N+](=O)[O-])c(OC2CCCCC2O)c([N+](=O)[O-])c1 (centres undefined),inactive: 22.6%
15,CN(C)c1cccc(C(=O)NCC2(N3CCCCC3)CCCCC2)c1,inactive: 6.29%
16,CCCCn1nnnc1C(c1ccnc2ccccc12)N1CCC(n2c(=O)[nH]c3ccccc32)CC1 (centres undefined),inactive: -5.77%
17,COc1cc(OC)c(C(=O)NCC2(N(C)C)CCCCC2)cc1OC,inactive: 3.82%
18,O=C(NCC1(N2CCOCC2)CCCCC1)c1cc(F)c(F)cc1Cl,inactive: 0%
19,CCC(c1nnnn1C(C)(C)C)N1CCC(n2c(=O)[nH]c3ccccc32)CC1 (centres undefined),inactive: -1.61%
